Target: 5-hydroxytryptamine receptor 1A (Homo sapiens, UniProt P08908)
Assay: Agonist activity at human 5HT1A receptor expressed in C6 cells assessed as stimulation of [35S]GTP-gamma-S binding relative to 5-hydroxytryptamine
Assay type: functional, cell-based
In short: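 Membranes from C6-glial cells expressing h5-HT1A, diluted 20-fold in 20 mM HEPES with 30 µM GDP, 100 mM NaCl, 3 mM MgCl2, 0.2 mM ascorbic acid (16-38 µg protein). Compound preincubated 30 min at 25 °C, then 500 pM [35S]GTPγS added. Six concentrations tested. Nonspecific binding with 10 µM GTPγS.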

Amino acid sequences for entries named in this document (tags omitted).
UniProt P08908, whole entry: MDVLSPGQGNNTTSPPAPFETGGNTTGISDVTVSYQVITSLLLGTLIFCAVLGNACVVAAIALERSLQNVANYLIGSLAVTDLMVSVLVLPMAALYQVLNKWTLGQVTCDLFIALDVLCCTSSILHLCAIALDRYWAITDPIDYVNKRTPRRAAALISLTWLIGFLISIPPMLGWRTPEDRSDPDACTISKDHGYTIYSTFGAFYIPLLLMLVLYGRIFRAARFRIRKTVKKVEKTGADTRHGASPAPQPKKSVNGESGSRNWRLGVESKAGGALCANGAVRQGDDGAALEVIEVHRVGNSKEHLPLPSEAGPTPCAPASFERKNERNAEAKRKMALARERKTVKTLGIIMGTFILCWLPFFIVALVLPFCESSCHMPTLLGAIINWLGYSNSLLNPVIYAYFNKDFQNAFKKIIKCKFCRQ

Emax: 74.7%
Compound: Cc1ccc(CNCC2(F)CCN(C(=O)c3ccc(F)c(Cl)c3)CC2)nc1 [BEFIRADOL]

— ChEMBL document CHEMBL1148798, “High-efficacy 5-HT1A agonists for antidepressant treatment: a renewed opportunity” (J Med Chem, 2007)
